Test system: Salmonella enteritidis
Experiment: perlite bio-assay with pure DHAA and vanillin (Example 7)
Type: cell-based
Conditions: DHAA (10 μl of 20 mM) if +DA
Description: Also, one 20 mM stock solution of DHAA was made in acetone. Bioassay test: The test was carried out using 1.5 ml Eppendorf tubes containing 10 mg of fine perlite. Ten μl of each concentration of vanillin was dispensed into four Eppendorf tubes to obtain four replicates of each concentration. Two of these received 10 μl of DHAA. The tubes were left in laminar flow chamber for 3 h to allow evaporation of the acetone. […] To keep the perlite moist during incubation, 10 μl of sterile R.O water was dispensed into each tube. As controls, two tubes received DHAA only and two tubes received R.O water only. The tubes were incubated overnight, and bacterial survival was quantified by plating the content of each tube onto nutrient agar for the bacterial count.

## COc1cc(C=O)ccc1O [Vanillin, 4-hydroxy-3-methoxybenzaldehyde]
Vanillin 0.625 mM
  Salmonella enteritidis count: TMTC
Vanillin 1.25 mM
  Salmonella enteritidis count: TMTC

Reference: patent publication US9743675B2, “Antimicrobial composition” (UNIVERSITY OF SURREY, priority 2009, dated 2017)
